This note sets out measurements from BindingDB's records for patent US20240239774 (Cornell University, 2024).

The chains behind the UniProt entries cited, without tags or fusion partners. Where a name states a change or a piece, a line headed by the entry shows the natural chain unless it says otherwise.
UniProt Q96PN6: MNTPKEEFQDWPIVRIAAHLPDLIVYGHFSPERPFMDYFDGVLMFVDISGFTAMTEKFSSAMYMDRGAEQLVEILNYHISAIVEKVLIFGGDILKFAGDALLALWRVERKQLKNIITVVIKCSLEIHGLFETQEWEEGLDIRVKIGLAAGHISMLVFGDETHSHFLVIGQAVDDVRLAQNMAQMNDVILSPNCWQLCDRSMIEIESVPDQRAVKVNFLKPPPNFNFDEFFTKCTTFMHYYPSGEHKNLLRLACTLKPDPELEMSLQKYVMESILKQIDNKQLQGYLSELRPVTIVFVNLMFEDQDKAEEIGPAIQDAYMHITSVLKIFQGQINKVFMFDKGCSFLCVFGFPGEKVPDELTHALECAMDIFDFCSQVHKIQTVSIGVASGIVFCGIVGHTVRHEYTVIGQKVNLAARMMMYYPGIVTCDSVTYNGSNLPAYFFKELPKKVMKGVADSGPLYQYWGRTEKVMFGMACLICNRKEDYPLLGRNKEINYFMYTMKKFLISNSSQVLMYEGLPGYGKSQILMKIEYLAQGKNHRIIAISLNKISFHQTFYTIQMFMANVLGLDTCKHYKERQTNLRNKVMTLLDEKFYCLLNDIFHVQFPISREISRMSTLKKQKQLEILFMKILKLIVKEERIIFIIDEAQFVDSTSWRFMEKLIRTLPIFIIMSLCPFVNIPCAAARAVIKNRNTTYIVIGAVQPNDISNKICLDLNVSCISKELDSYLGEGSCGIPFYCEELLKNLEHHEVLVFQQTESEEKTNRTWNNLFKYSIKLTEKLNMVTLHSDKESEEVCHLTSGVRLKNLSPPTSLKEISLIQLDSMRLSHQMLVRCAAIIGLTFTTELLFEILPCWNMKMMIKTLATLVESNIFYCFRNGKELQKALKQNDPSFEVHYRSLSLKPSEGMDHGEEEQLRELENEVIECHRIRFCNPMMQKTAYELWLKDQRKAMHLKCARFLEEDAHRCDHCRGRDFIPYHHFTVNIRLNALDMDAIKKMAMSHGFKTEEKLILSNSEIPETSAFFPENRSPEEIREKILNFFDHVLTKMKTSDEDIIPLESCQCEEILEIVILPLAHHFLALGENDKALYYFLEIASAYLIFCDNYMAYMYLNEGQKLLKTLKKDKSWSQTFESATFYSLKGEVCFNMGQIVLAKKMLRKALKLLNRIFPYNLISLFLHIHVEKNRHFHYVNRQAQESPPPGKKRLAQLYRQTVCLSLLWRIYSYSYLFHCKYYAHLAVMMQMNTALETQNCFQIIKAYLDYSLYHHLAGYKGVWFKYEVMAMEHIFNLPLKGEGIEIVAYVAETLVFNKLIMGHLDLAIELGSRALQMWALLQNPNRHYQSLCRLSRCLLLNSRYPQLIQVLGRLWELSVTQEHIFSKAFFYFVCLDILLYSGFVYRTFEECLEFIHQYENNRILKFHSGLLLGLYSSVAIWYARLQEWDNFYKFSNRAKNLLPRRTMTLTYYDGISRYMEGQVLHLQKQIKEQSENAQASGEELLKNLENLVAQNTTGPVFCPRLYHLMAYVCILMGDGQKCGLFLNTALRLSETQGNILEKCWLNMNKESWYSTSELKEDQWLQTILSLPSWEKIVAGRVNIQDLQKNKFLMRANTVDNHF

Values joined by “and” are separate entries in the source; they are usually repeats but may differ in a detail not shown here. Equal values may be shown once.

For this assay, the target named is Adenylate cyclase type 10 (Homo sapiens, UniProt Q96PN6). Briefly: sAC Biochemical Cyclase Assay.
By IC50 is commonly meant the concentration needed to halve the response being measured. A low value points to greater potency. As to `Nc1nc(Cl)cc(-c2nn(C(F)F)cc2Cc2ccccc2OCCN2CCS(=O)(=O)CC2CO)n1` (single isomer, unassigned) [US20240239774, Example 179], the IC50 was 80 nM and 690 nM.

In the case of `Cn1cc(Cc2ccccc2OCCN2CCOCC2)c(-c2cc(Cl)nc(N)n2)n1` [US20240239774, Example 82], the IC50 is 1.6 nM.

The compound `Cn1cc(Cc2ccccc2OCCN2C[C@H]3C[C@@H]2CO3)c(-c2cc(Cl)nc(N)n2)n1` [US20240239774, Example 107] came in with an IC50 of 5 nM.

The compound `Cn1cc(Cc2ccccc2OCCN2CCNC(=O)C2)c(-c2cc(Cl)nc(N)n2)n1` [US20240239774, Example 120] came in with an IC50 of 8 nM.

As for `Cn1cc(Cc2ccccc2OCCN2CC3(COC3)C2)c(-c2cc(Cl)nc(N)n2)n1` [US20240239774, Example 123], the IC50 was determined as 5 nM.
